## Ab-91 heavy chain CDR variants: yeast mating affinities

Data: MIT Lincoln Laboratory AlphaSeq set, Engelhart et al. 2022, doi:10.1038/s41597-022-01779-4, as distributed in FLAb.

Target peptide (SARS-CoV-2 spike, HR2 region): PDVDLGDISGINAS

Parent scFv Ab-91: VL joined to VH by the linker GGGGSGGGGSGGGGS. Changes lie in the heavy chain CDRs alone.
VL: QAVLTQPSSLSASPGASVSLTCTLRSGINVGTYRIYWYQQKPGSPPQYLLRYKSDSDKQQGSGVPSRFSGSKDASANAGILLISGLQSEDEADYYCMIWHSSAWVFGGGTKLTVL
VH: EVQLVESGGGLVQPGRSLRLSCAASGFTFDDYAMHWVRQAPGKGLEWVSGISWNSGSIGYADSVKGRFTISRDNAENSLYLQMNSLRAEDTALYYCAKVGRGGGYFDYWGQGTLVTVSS

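Phage display of a naive human antibody library on the peptide gave the parent. The library (AAYL51) carries one to three amino acid substitutions per variant, with no insertions or deletions. The scFvs were displayed on barcoded MATa yeast, the peptide on MATalpha yeast. Binding brings cells together so that they mate, and sequencing counts the barcode pairs among the diploids. Each replicate has its own calibration line, from reference interactions of the BCL2 family. There are three technical replicates.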

Variants are written as CDR1, CDR2 and CDR3 of the heavy chain (limits as in the source). Parent: GFTFDDYAMH, GISWNSGSIGYADSVK, VGRGGGYFDY.
This list gathers variants with a substitution at T28 (VH, numbered from residue 1).
Kd is apparent (estimated from mating counts) and averaged on the log scale over replicates with a signal. Smaller is tighter.
"no signal" means that the variant was in the library but no mating with the target was seen in any replicate; the authors take this as a sign of poor binding, and no number exists.
Background: pairings of library AAYL51 with three empty control strains gave a value in 21% of cases (median 34 µM, 5th percentile 1.8 µM). Values in that range, when seen in few replicates, are hard to tell from nonspecific mating. Also given: how often the same scFv was detected with the empty control strains.

With GFHFDDYAMH | GISWNSGSIGYADSVK | VGRGGGQFDY the result was 2.3 nM (3 of 3 replicates; controls 1 of 9). With GFHFDDYAMK | GISWSSGSIGYADSVK | VGRGGGYFDY the result was no signal (0 of 3 replicates; controls 0 of 9). With GFKFDDYAMH | GISWNSGMIGYATSVK | VGRGGGYFDY the result was 12 nM (3 of 3 replicates; controls 0 of 9). With GFAFDDYRMH | GASWNSGSIGYADSVK | VGRGGGYFDY the result was 12 µM (2 of 3 replicates; controls 1 of 9). For GGLFDDYAMH | GISWNSGSIGYADSAK | VGRGGGYFDY, the assay gave no signal (0 of 3 replicates; controls 0 of 9).

The variant GFQFDDYAMH | GISWNSGSIGYHDSVK | VGRGGGTFDY gave no signal (0 of 3 replicates; controls 1 of 9). With GLSFDDYAMH | GISWNSGSIMYADSVK | VGRGGGYFDY the result was no signal (0 of 3 replicates; controls 3 of 9). The variant GFVFDDYAWH | GISWNSGSIGYADRVK | VGRGGGYFDY gave 11 µM (1 of 3 replicates; controls 1 of 9). For GFEFDDYTMH | GISWNSGSIGYADSVK | VGRGGGYFIY, the assay gave 46 µM (1 of 3 replicates; controls 0 of 9). The variant GFVFDTYAMH | GLSWNSGSIGYADSVK | VGRGGGYFDY showed no signal (0 of 3 replicates; controls 1 of 9).

The variant GFQFDDYAMH | GISWNSGSIGYADSVK | VHRGGGYFNY showed 2.8 µM (1 of 3 replicates; controls 0 of 9). The variant GFNFDDYPMH | GISWNSGSQGYADSVK | VGRGGGYFDY gave 26 nM (3 of 3 replicates; controls 0 of 9). For GFPFDDYAMH | GISWNFGSIGYADSVK | VGRGGGYFDY, the assay gave no signal (0 of 3 replicates; controls 0 of 9). The variant GFHFDDYAMH | LISWNSGSIGYADSVK | VGRGHGYFDY gave 24 µM (1 of 3 replicates; controls 5 of 9). The variant GFQFQDYAMH | GISWNSGSIGYADSVK | KGRGGGYFDY showed no signal (0 of 3 replicates; controls 1 of 9).

For GFQFDDYAMH | GICWRSGSIGYADSVK | VGRGGGYFDY, the assay gave 200 µM (1 of 3 replicates; controls 2 of 9). For GFGFDDYAMH | GISWNSGSIGYADSVK | YGRTGGYFDY, the assay gave 110 µM (2 of 3 replicates; controls 0 of 9). For GFMFDDYAWH | GISWNSGSIGYADSVD | VGRGGGYFDY, the assay gave 85 µM (1 of 3 replicates; controls 1 of 9). With GFLFDDYAMH | GISWNSGSIGYAKSVP | VGRGGGYFDY the result was no signal (0 of 3 replicates; controls 0 of 9). With GFGFDDYAMH | GIHWNSGSIGYADSVK | VGRGGGYFYY the result was no signal (0 of 3 replicates; controls 1 of 9).

With GFEFDDYDMH | GISWNSGSIGYADSVK | VGRGGGDFDY the result was 24 µM (1 of 3 replicates; controls 2 of 9). The variant GFYFNDYAMH | GISWNSGSIGYADSVK | VGRGGGYYDY gave 530 nM (3 of 3 replicates; controls 7 of 9). For GFEFDDYKMH | GISWNSSSIGYADSVK | VGRGGGYFDY, the assay gave 4.5 µM (1 of 3 replicates; controls 5 of 9). For GFIFDDYAMH | GISWNSGSIGYADSVK | VGRGGGYFQY, the assay gave no signal (0 of 3 replicates; controls 0 of 9). With GFGFDDYAMH | GISWFSGSIGYADSVK | VGRGGGYFDY the result was 32 µM (1 of 3 replicates; controls 0 of 9).

For GFMFPDYAMH | GISWKSGSIGYADSVK | VGRGGGYFDY, the assay gave 2.9 µM (1 of 3 replicates; controls 0 of 9). The variant GFNFDDYAMH | GIDWNSGSIGYADSVK | VGRGGGYFDY gave no signal (0 of 3 replicates; controls 0 of 9). For GFWFDDYAMH | GISWNSGSIGYADSVK | VGRPGGWFDY, the assay gave no signal (0 of 3 replicates; controls 1 of 9). The variant GFLFDDYAMH | GISWNSGSINYADSVK | VGRGNGYFDY gave 64 µM (2 of 3 replicates; controls 4 of 9). The variant GFMFDRYAMH | GISWNSGSIGYTDSVK | VGRGGGYFDY showed 12 nM (3 of 3 replicates; controls 2 of 9).

The last 3 entries again:

The variant GFWFDDYAMH | GISWNSGSIGYADSVK | VGRPGGWFDY showed no signal (0 of 3 replicates; controls 1 of 9).
The variant GFLFDDYAMH | GISWNSGSINYADSVK | VGRGNGYFDY showed 64 µM (2 of 3 replicates; controls 4 of 9).
The variant GFMFDRYAMH | GISWNSGSIGYTDSVK | VGRGGGYFDY showed 12 nM (3 of 3 replicates; controls 2 of 9).

In this assay the parent's reference entry averaged 72 nM; its copy inside this library read 7.5 nM.